Experiment: dynamic vapor sorption (DVS)

(1r,4r)-6′-fluoro-N,N-dimethyl-4-phenyl-4′,9′-dihydro-3′H-spiro[cyclohexane-1,1′-pyrano[3,4,b]indol]-4-amine
relative humidity of transformation ansolvate→hemi-hydrate (DVS second cycle): > 70 % r. h. | relative humidity of transformation hemi-hydrate→ansolvate (DVS second cycle): < 38 % r. h. | hygroscopicity class (DVS, two cycles): hygroscopic (hygroscopic (h): increase of the mass is less than 15% and equal or greater than 2%) | Δm: change in mass (at 85% r. h.): 3-4%
